Reference: PubChem BioAssay AID1443 (Sanford-Burnham Center for Chemical Genomics, 2008)
Only a part is listed here, and it is no random draw. Activity calls are given as the source filed them.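 Rule for the calls: active = cell killing above 50% in the first pass at 4 µM, then a duplicate retest at 5 µM averaging 50% or more; inactive = the rest.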

Assay: PPC-1 cell viability loss under TRAIL – PPC-1 cells, ATPLite luminescence, uHTS, TRAIL potentiator project, primary screen (AID 1443);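 note: plate controls were cells with TRAIL plus DMSO for no effect and medium-only wells lacking cells for full effect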
Settings: PPC-1 cells + TRAIL, at 5 µM, stronger effect = higher value

Q: Which cell killing (% activity) does the source give for C[N+]1=C2C=CC=CC=C2SC12C([N+](=O)[O-])=CC([N+](=O)[O-])=C[C-]2[N+](=O)[O-] (stereo unspecified) here?
A: inactive: 20.1%
